Yeast mating assay 2: variants of the scFv Ab-91

All variants were tested on one target, the spike HR2 peptide PDVDLGDISGINAS (SARS-CoV-2).

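Phage display of a naive human antibody library on the peptide gave the parent. In library AAYL51, one, two or three CDR residues were substituted; doubles and triples were drawn at random. In AlphaSeq, yeast of one mating type display the scFv and yeast of the other type display the target. Binding brings cells together so that they mate, and sequencing counts the barcode pairs among the diploids. Scores were corrected for input abundance and mapped to Kd with protein pairs of known affinity run in the same pool. There are three technical replicates.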

Parent scFv Ab-91: VL joined to VH by three GGGGS repeats. Changes lie in the heavy chain CDRs alone.
VL: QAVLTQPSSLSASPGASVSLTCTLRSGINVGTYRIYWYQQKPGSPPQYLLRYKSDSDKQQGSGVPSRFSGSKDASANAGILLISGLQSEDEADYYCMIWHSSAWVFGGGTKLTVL
VH: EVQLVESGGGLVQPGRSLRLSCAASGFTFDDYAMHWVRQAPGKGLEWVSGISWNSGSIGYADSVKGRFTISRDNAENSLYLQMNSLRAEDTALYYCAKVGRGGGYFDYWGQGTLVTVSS

Changes read parent residue, position, new residue, counted from the first residue of the VH shown.
These are single substitutions, in order of position.
Affinities are written as log10 Kd with Kd in nM; a lower number is a better binder.
"nd" means that the variant was in the library but no mating with the target was seen in that replicate; the authors take this as a sign of poor binding, and no number exists.
Parent in this assay: reference entry 1.86, copy in this library 0.88.
Three control strains display no target. For library AAYL51, 21% of the pairings with them gave a signal, with a median of 4.54 and one signal in twenty below 3.26, so weak values seen in few replicates may be background.

changes,"replicates, log10 nM"
D62I,1.60 / 1.50 / 1.13
D62H,6.60 / 4.77 / nd
D62N,1.55 / 1.71 / 1.31
D62A,3.68 / 5.59 / nd
D62Q,3.04 / 2.78 / 3.34
D62P,3.99 / 3.81 / 3.95
D62K,3.17 / nd / nd
D62S,2.15 / 2.04 / 1.96
D62C,1.69 / 1.78 / 1.48
S63W,0.94 / 0.92 / 0.36
S63K,nd / nd / nd
S63C,2.35 / 2.39 / 2.08
S63D,4.28 / 7.01 / 5.10
S63V,nd / nd / 4.52
S63Q,5.33 / nd / nd
S63Y,1.15 / 1.46 / 0.68
S63L,4.44 / 4.70 / nd
S63P,1.65 / 1.73 / 0.83
S63G,nd / 3.81 / nd
S63R,1.48 / 1.57 / 1.00
S63A,4.28 / nd / 5.18
S63N,0.86 / 0.84 / 0.44
S63I,4.85 / nd / nd
V64L,nd / nd / nd
V64N,2.34 / 2.33 / 2.14
V64Y,nd / nd / 4.91
V64K,nd / nd / nd
V64C,4.36 / nd / nd
V64W,2.96 / 1.71 / nd
V64A,nd / nd / 3.71
V64P,nd / nd / nd
V64I,nd / nd / nd
V64R,nd / 5.77 / nd
V64Q,3.82 / 3.15 / nd
V64E,5.08 / nd / 4.76
V64F,0.90 / 0.85 / 0.54
V64H,4.43 / 4.02 / 5.19
K65N,4.41 / nd / 3.88
K65I,4.04 / 4.49 / 3.75
K65R,4.71 / nd / 5.48
K65E,0.96 / 0.98 / 0.41
K65S,1.00 / 1.08 / 0.60
K65V,nd / 2.75 / nd
K65M,2.14 / 2.03 / 1.83
K65L,4.37 / 4.63 / 4.92
K65T,2.09 / 1.86 / 0.99
K65F,1.18 / 1.33 / 0.86
K65D,1.45 / 1.50 / 0.83
K65G,1.90 / 2.02 / 2.19
K65C,nd / nd / 3.27
K65Q,nd / nd / nd

Again, the first 6 entries without any signal:

changes,"replicates, log10 nM"
S63K,nd / nd / nd
V64L,nd / nd / nd
V64K,nd / nd / nd
V64P,nd / nd / nd
V64I,nd / nd / nd
K65Q,nd / nd / nd

Values reported by Engelhart et al. 2022, doi:10.1038/s41597-022-01779-4 (FLAb copy).